From patent publication US10894777B2, “TG2 inhibitor piperazine compounds and uses thereof” (UNIVERSITY OF OTTAWA, priority 2016, dated 2021)

How the values were obtained:
Assay type in all cases: biochemical
TG2 [1] = molecular target: T1, TG2 (Homo sapiens, UniProt P21980); assay: Kinetic inactivation of purified recombinant human TG2, continuous spectrophotometric activity assay (Examples 3, 10); design: made in house; conditions: Table 4
T1 sequence (P21980 1-687): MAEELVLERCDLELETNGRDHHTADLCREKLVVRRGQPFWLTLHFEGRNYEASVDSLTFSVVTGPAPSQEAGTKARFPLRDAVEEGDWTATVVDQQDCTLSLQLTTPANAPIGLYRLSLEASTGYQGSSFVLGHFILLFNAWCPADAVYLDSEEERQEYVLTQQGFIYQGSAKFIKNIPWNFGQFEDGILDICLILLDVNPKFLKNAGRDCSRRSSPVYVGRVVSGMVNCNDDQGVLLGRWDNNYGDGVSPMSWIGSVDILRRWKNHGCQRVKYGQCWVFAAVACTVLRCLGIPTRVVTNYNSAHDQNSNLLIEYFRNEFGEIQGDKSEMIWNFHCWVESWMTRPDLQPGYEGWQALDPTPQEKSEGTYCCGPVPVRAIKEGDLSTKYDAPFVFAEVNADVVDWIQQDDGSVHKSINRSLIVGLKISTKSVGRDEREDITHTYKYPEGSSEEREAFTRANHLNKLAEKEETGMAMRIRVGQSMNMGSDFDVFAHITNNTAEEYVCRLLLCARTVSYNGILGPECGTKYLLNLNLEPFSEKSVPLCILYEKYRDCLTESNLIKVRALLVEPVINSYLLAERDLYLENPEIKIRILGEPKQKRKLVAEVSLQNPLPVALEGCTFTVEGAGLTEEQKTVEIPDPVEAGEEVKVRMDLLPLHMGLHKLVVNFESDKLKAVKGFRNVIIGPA
Experimental: Kinetic studies were carried out in vitro, using purified recombinant human TG2 (Roy, I. et al., Protein Expr. Purif. 87: 41-46, 2013) and a direct, continuous spectrophotometric activity assay (Leblanc, A. et al., Biochemistry 40: 8335-8342, 2001).
Kinetics. Kinetic runs were performed at 25° C. in 100 mM MOPS buffer (pH 7.0) containing 3 mM CaCl2 and 50 μM EDTA. […] Stock solutions of the substrate and inhibitors were prepared in DMF such that the final concentration of this co-solvent was constant at 10% v/v. Reactions were initiated with the addition of enzyme with an activity of approximately 0.05 U/mL. Kinetic evaluation was carried out by the method of Stone and Hofsteenge (Stone, S. R. and Hofsteenge, J., Biochem. J. 230: 497-502, 1985). […] Observed first-order rate constants of inactivation were determined from non-linear regression, to a mono-exponential model. These rate constants were in turn fit to equation 1 by non-linear regression, providing the kinetic parameters
Kinetic parameters were determined as described above.

TG2 [2] = molecular target: T1, TG2; assay: Colorimetric transamidase activity assay (AL5 substrate), hTG2
Description: (§1) In Vitro Assays. Colorimetric transamidase activity assay.

FXIIIa = molecular target: T2, FXIIIa (Homo sapiens, UniProt P00488); assay: Fluorescence isopeptidase activity assay (A101 probe), FXIIIa; conditions: Table 9; Kitz and Wilson conditions
T2 construct: purchased Zedira
T2 sequence (P00488 39-732 limits assumed): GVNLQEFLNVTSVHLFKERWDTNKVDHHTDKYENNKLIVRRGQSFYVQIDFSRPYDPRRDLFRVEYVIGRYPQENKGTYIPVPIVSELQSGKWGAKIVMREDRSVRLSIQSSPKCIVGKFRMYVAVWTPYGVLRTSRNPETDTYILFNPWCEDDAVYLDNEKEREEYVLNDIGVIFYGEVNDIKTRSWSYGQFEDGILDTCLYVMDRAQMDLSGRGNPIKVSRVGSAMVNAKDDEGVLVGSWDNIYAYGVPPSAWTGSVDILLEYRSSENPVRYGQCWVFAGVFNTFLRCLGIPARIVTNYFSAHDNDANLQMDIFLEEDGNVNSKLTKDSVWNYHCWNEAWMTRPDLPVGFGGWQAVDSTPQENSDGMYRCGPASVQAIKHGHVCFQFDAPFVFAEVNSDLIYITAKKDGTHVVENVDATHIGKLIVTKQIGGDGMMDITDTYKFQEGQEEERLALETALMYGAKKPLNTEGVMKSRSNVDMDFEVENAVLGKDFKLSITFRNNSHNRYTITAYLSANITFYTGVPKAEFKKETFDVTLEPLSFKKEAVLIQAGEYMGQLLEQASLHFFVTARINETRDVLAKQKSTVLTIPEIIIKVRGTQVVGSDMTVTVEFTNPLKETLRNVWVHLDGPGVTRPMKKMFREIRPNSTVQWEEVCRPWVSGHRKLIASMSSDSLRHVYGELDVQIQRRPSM
Experimental: (§2) Selectivity of certain irreversible inhibitors over other members of the transglutaminase family was assessed. Specifically, two efficient irreversible inhibitors, VA4 and NC9, were tested against four therapeutically relevant isoforms of human transglutaminase: FXIIIa, hTG3, hTG1 and hTG6. Inhibitors were tested using a continuous colorimetric assay (Leblanc, A. et al., Biochemistry (2001), 40 (28): 8335-8342) for hTG1 and hTG6 and a commercially available continuous fluorescent assay that utilizes a peptidic FRET quenched substrate (Oertel, K. et al., Anal. Biochem. (2007), 367 (2): 152-158; Király, R. et al., Amino Acids (2016), 48 (1): 31-40) for the other transglutaminases, FXIIIa and hTG3. The rate constant of enzyme inactivation (kobs) for a specific concentration of inhibitor was obtained using Kitz and Wilson conditions (Kitz, R. et al., J. Biol. Chem. (1962), 237: 3245-49). Inhibitor concentrations were adjusted to account for competition with substrates in each enzymatic reaction. […]
(§3) Fluorescence isopeptidase activity assay. The isopeptidase activity of pre-activated TG3a and FXIIIa (purchased from Zedira) was measured via a fluorescence-based assay (Király, R. et al., Amino Acids (2016), 48 (1): 31-40) using the commercially available peptidic FRET quenched probe A101 from Zedira. […] The reaction was monitored at 25° C. using a BioTek Synergy 4 plate reader (Ex/Em: 318/413 nm).

TG3a = molecular target: T3, TG3a (Homo sapiens, UniProt Q08188); assay: Fluorescence isopeptidase activity assay (A101 probe), TG3a; conditions: Table 9; Kitz and Wilson conditions
T3 construct: purchased Zedira
T3 sequence (Q08188 2-467 limits assumed): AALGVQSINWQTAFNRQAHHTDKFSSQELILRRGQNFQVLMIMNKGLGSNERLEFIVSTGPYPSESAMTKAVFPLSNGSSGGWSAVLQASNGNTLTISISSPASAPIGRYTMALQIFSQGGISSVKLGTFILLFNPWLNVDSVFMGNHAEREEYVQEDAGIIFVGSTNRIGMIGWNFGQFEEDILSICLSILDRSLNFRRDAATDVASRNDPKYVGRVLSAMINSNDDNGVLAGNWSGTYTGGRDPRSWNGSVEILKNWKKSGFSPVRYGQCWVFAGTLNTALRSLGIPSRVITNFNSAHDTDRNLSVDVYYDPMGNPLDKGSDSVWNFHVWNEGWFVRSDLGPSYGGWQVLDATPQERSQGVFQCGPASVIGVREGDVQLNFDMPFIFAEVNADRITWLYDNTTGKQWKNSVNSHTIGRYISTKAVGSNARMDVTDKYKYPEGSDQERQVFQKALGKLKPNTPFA
T3 sequence (Q08188 468-693 partner limits assumed): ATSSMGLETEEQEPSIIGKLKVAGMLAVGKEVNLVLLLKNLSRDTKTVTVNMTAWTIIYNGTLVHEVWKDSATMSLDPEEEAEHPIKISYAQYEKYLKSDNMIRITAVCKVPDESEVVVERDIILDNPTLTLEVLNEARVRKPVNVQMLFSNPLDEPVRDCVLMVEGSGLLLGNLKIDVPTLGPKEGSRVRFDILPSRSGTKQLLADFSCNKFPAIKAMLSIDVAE
Experimental: as §2, §3

hTG1 = molecular target: T4, hTG1 (Homo sapiens, UniProt P22735); assay: Colorimetric transamidase activity assay (AL5 substrate), hTG1
T4 sequence (P22735 1-817): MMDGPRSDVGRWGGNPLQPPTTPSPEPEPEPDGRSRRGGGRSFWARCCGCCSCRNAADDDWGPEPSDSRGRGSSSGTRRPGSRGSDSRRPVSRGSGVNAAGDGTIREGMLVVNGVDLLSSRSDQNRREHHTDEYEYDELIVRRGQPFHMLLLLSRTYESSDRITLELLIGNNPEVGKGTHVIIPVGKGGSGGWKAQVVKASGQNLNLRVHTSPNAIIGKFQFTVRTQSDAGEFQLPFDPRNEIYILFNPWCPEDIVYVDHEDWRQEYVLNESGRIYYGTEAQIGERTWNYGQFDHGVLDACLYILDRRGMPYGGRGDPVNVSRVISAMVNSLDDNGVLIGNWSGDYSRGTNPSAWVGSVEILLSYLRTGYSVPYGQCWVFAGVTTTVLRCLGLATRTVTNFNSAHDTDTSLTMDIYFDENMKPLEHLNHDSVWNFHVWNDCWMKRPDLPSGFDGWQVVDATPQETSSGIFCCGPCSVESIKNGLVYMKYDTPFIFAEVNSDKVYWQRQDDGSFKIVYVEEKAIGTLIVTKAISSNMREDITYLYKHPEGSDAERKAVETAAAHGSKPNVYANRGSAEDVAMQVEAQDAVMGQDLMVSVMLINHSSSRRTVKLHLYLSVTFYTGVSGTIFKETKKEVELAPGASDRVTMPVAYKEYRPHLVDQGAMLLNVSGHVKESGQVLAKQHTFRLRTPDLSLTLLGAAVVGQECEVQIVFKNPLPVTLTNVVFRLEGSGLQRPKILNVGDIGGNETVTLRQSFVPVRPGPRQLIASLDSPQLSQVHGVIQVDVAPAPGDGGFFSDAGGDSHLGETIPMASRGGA
Experimental: Selectivity of certain irreversible inhibitors over other members of the transglutaminase family was assessed. Specifically, two efficient irreversible inhibitors, VA4 and NC9, were tested against four therapeutically relevant isoforms of human transglutaminase: FXIIIa, hTG3, hTG1 and hTG6. Inhibitors were tested using a continuous colorimetric assay (Leblanc, A. et al., Biochemistry (2001), 40 (28): 8335-8342) for hTG1 and hTG6 and a commercially available continuous fluorescent assay that utilizes a peptidic FRET quenched substrate (Oertel, K. et al., Anal. Biochem. (2007), 367 (2): 152-158; Király, R. et al., Amino Acids (2016), 48 (1): 31-40) for the other transglutaminases, FXIIIa and hTG3. The rate constant of enzyme inactivation (kobs) for a specific concentration of inhibitor was obtained using Kitz and Wilson conditions (Kitz, R. et al., J. Biol. Chem. (1962), 237: 3245-49). Inhibitor concentrations were adjusted to account for competition with substrates in each enzymatic reaction. […] In addition, VA4 illustrated a lower reactivity towards other transglutaminase isozymes compared to NC9.
as §1

Compound	kinact (TG2 [1]) [s⁻¹]	kinact (TG2 [2]; Table 8) [s⁻¹]	kobs (10^−3 min^−1), FXIIIa (FXIIIa)	kobs (10^−3 min^−1), TG3a (TG3a)	kinact (TG2 [2]; Table 5) [s⁻¹]	kobs (10^−3 min^−1), TG2 (TG2 [2]; Table 9, Kitz and Wilson conditions, inhibitor concentration adjusted for competition with substrate)	kobs (10^−3 min^−1), TG1 (hTG1; Table 9, Kitz and Wilson conditions)	less reactive with hTG1 compared to hTG2 (hTG1; from kobs) [fold]
C=CC(=O)NCCCC[C@H](NC(=O)OCc1ccccc1)C(=O)N1CCN(C(=O)c2cccc3ccccc23)CC1 [AA9, (S)-benzyl (1-(4-(1-naphthoyl)piperazin-1-yl)-6-acrylamido-1-oxohexan-2-yl)carbamate]	0.015	0.015	–	–	–	–	–	–
C=CC(=O)NCCCC[C@H](NC(=O)OCc1ccccc1)C(=O)N1CCN(S(=O)(=O)c2cccc3c(N(C)C)cccc23)CC1 [VA4, (S)-benzyl(6-acrylamido-1-(4-((5-(dimethylamino)naphthalen-1-yl)sulfonyl)piperazin-1-yl)-1-oxohexan-2-yl)carbamate]	–	–	4.08 ± 0.77 10^−3 min^−1	0.65 ± 0.21 10^−3 min^−1	0.0233	394 ± 37 10^−3 min^−1	8.27 ± 0.76 10^−3 min^−1	48
